This is an account of results in patent publication US20050095279A1, “Transdermal analgesic systems having reduced abuse potential” (published 2005).

The nature of this data set: Bioequivalence study, Example 15 fentanyl system vs DUROGESIC 100 μg/h (Example 31). To be noted: Treatment B (100 μg/h, 42 cm^2), samples at and before 76 hours post-application, LC/MS/MS.

`O=C1CC[C@@]2(O)[C@H]3Cc4ccc(O)c5c4[C@@]2(CCN3CC2CC2)[C@H]1O5`: the “naltrexone concentration in the serum samples” value is “below the detectable levels”.
